In patent US9725465B2, “Biaryl acetamide compounds and methods of use thereof” (Ambit Biosciences Corporation, priority 2013, dated 2017):

Experiments:
BaF3 FLT3-ITD cells = conditions: female nu/nu mice, 30 mpk p.o. once daily for 14 days in 5% hydroxypropylbetacyclodextrin
BaF3 FLT3-ITD/D835 cells = conditions: BaF3 FLT3-ITD/D835, female nu/nu mice, 30 mpk p.o. once daily for 14 days in 5% hydroxypropylbetacyclodextrin

`CC(C)(C)c1cc(NC(=O)Nc2ccc(-c3cn4c(n3)sc3cc(OCCN5CCOCC5)ccc34)cc2)no1` [AC220, quizartinib] was tested, and the “Survival time to endpoint (TTE)” value (BaF3 FLT3-ITD cells) was 34, the “increased lifespan (% ILS)” value (BaF3 FLT3-ITD cells) was 94% and the “Survival time to endpoint (TTE)” value (BaF3 FLT3-ITD/D835 cells) was 20. The “increased lifespan (% ILS)” value (BaF3 FLT3-ITD/D835 cells) was 25%.
